These results are taken from US20260382572A1, “TREATMENT OF FRONTOTEMPORAL DEMENTIA OR FRONTOTEMPORAL LOBAR DEMENTIA” (published 2026).

In one data set the test system is male and female mice. The data set can be described thus: Maximum tolerated dose (MTD) in mice. As to conditions: oral 500 mg/kg, 60 and 120 min after administration. The method, then: Example 3.6. Maximum tolerated dose (MTD) in mice. Compound 1 was orally administered at different doses (100, 200, and 500 mg/kg) to male and female mice and potential side effects were observed after 60 and 120 min following administration (Eurofins Pharmacology). […] This evidence indicates a considerable range of safety for Compound 1 by oral administration, between the tested therapeutic dose (50 mg/kg) and the maximum tolerated dose (500 mg/kg).

Another data set has as its system brain microglia (Iba-1). As to the kind of experiment: LPS-induced microgliosis in mouse brain (Iba-1 immunofluorescence). As to conditions: 20 mg·kg^−1 i.p.; 4 and 24 h after LPS. The method, then:
FIG. 4. Compound 1 reverts brain microgliosis triggered by LPS. Representative images of brain microglia 4 h and 24 h after the proinflammatory stimuli (A). Mean intensity of IBA-1 per cell 4 h (n=10) and 24 h (n=7, except n=6 LPS+Compound 1) after LPS injection (B).
Immunofluorescence labelling in in vitro and in vivo samples was performed as described in [Luengo, Enrique et al. “Implication of type 4 NADPH oxidase (NOX4) in tauopathy.” Redox biology vol. 49 (2022): 102210. doi:10.1016/j.redox.2021.102210].
Example 2.3.1. Treatment with Compound 1 reduces LPS-induced cytokine expression and release in mouse brain. Mice were treated i.p. with a daily dose of 20 mg·kg^−1 of Compound 1 for 4 consecutive days. On the last day, LPS (0.5 mg·kg^−1) was injected i.p. one h after the compound. Thereafter, behavioural, and biochemical outcomes were analysed at different time points.
Example 2.3.2. Treatment with Compound 1 reduces LPS-induced microgliosis in mouse brain. […] Microgliosis was evaluated using Iba-1 as a microglial marker in immunofluorescence experiments 4 h and 24 h after the inflammatory stimuli (LPS). The mean fluorescence intensity of Iba-1 per cell in mice treated with LPS, mainly 4 h after LPS, was almost doubled respect saline condition; this increase was restored to saline levels in mice treated with Compound 1 both at 4 and 24 h (FIG. 4).

In data set [1] the test system is hyperphosphorylated tau (hTauP301L). As to the kind of experiment: hTauP301L FTD model, adult mice: tau soluble and insoluble in sarkosyl by western blot. The following applies: oral 50 mg/kg/day 35 days. Here is the method: FIG. 8. Compound 1 reduces insoluble forms of hyperphosphorylated tau species in adult mice with hTauP301L tauopathy after 35 days oral administration (50 mg/kg/day). (A). Representative images of WB against AT8 and (B) AT180 antibodies of sarkosyl solule and insoluble protein species. Quantification of sarkosyl soluble (n=10) (C) and insoluble species (D) using AT8 antibody (n=10). Quantification of sarkosyl soluble (n=10) (E) and insoluble species (F) using AT180 antibody (n=10).
(§1) In vivo hTau301L model was induced by stereotaxic injection of AAV-hTauP301L (AAV-hTau) particles as described in [Luengo, Enrique et al. “Implication of type 4 NADPH oxidase (NOX4) in tauopathy.” Redox biology vol. 49 (2022): 102210. doi:10.1016/j.redox.2021.102210]. Control animals were injected with AAV-GFP. Evaluation of hyperphosphorylated tau in sarkosyl soluble and insoluble fractions; microgliosis; AT8 and AT180 by immunofluorescence; and cognitive test were performed as described previously [Luengo, Enrique et al. “Implication of type 4 NADPH oxidase (NOX4) in tauopathy.” Redox biology vol. […]
(§2) Example 2.5. […] After 35 days treatment, hyperphosphorylated tau levels were evaluated by immunofluorescence and by WB in soluble and insoluble in sarkosyl fractions. […]
After 35 days of treatment, monomeric and oligomeric forms of tau, soluble and insoluble in sarkosyl, were analysed by western blot. […]
(Immunoblotting shows a protein as a band on a membrane.)

In data set [2] the test system is primary rat glial cultures. The data set can be described thus: Anti-neuroinflammatory effect: % reduction of nitrites in LPS-stimulated primary rat glial cultures (Griess/MTT). The following applies: Table 2. Here is the method:
Screening for anti-inflammatory properties in primary rat glial cultures was performed according to the protocol described previously [Gameiro, Isabel et al. “Discovery of the first dual GSK3β inhibitor/Nrf2 inducer. A new multitarget therapeutic strategy for Alzheimer's disease.” Scientific reports vol. 7 45701. 31 Mar. 2017, doi:10.1038/srep45701]. All compounds were evaluated at the single concentration of 3 μM. Neuroinflammation was quantified as the value of released nitrates, measured by the Griess method, normalized by the number of viable cells measured by the MTT method [Mosmann, T. “Rapid colorimetric assay for cellular growth and survival: application to proliferation and cytotoxicity assays.” Journal of immunological methods vol. 65, 1-2 (1983): 55-63. doi:10.1016/0022-1759(83)90303-4]. LPS alone was considered 100% inflammation.
Background: Griess reagent forms a coloured azo dye with nitrite.

In data set [3] the test system is adult mice with hTauP301L tauopathy. As to the kind of experiment: hTauP301L FTD model, adult mice: Object location test (OLT). As to conditions: 35 days. The method, then:
FIG. 9. Compound 1 prevents cognitive decline in spatial memory behavioural paradigms in adult mice with hTauP301L tauopathy after 35 days oral administration (20 mg/kg or 50 mg/kg/day). (A) Representation of T-maze alternation test and (B) Object Location test (OLT). (C) Average percentage of success in seven independent attempts (n=14-19). (D) Discrimination index in the OLT assay (AAV-eGFP, n=15; AAV-hTau, n=10; AAV-hTau+Compound 1 at 20 mg/kg, n=5; AAV-hTau+Compound 1 at 50 mg/kg, n=8).
as §1, §2
Spatial memory was measured using the T-maze (FIG. 9A) and the Object localization tests (OLT; FIG. 9B).

Consider `COc1ccc2c(c1)CC(c1c[nH]c3ccc(OC)cc13)N2` (stereo not shown), for which the “observable side effects (behavioral, neurological, autonomic)” value in the data set on male and female mice is given as “did not cause any observable side effects”. The “mean fluorescence intensity of Iba-1 per cell” value with brain microglia (Iba-1) is “restored to saline levels”. For the same compound, in data set [1], the “insoluble tau monomers (sarkosyl), AT180 (FIG. 8F)” value is “significant reduction of insoluble monomers” and the “insoluble tau oligomers (sarkosyl), AT180 (FIG. 8F)” value is recorded as “tendency to reduce insoluble oligomers”. In addition, the “anti-neuroinflammatory activity (in words)” value in data set [2] was “best anti-neuroinflammatory activity”. In addition, in data set [3] (oral 50 mg/kg), the OLT discrimination index entry was “total recovery was achieved”. Also, the OLT discrimination index entry in data set [3] (oral 20 and 50 mg/kg) is “dose-dependent improvement”.
